The list shows a part of the results, in another mix than the full data. Calls of active or inactive are those of the source. No stated cut-off is given here; in the data, active means activation above about 18%; inactive means the rest.
target: Mu-type opioid receptor (Homo sapiens) + Delta-type opioid receptor (Homo sapiens) (UniProt P35372+P41143); test: agonists of OPRM1-OPRD1 heterodimerization, primary screen, cell-based, luminescence (AID 504326); conditions: cells, at 9.3 µM, active compounds read high;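 further: 0% = vehicle-treated cells and 100% = reference agonist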

The chains behind the UniProt entries cited, without tags or fusion partners.
UniProt P35372, whole entry, looked up: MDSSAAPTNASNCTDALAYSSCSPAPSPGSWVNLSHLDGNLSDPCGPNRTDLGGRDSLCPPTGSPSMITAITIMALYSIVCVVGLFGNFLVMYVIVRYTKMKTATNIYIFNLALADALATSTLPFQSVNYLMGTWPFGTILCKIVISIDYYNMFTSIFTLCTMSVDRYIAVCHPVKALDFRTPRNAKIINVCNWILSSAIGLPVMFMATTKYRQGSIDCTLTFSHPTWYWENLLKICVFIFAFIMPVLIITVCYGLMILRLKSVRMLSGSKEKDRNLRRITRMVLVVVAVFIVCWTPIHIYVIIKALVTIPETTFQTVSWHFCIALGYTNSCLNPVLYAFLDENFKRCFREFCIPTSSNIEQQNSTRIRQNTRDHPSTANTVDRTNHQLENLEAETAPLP
UniProt P41143, whole entry, looked up: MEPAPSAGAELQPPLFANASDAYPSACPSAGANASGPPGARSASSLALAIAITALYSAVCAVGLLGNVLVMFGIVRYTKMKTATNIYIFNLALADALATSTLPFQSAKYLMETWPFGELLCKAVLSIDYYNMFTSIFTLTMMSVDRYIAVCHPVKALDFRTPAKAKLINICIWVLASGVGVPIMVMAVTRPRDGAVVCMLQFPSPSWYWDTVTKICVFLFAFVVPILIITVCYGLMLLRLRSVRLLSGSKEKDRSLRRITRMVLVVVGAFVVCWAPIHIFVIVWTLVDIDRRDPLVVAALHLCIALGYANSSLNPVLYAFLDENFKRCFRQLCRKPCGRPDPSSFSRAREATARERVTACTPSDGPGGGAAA

Structure (SMILES) | activation
Cn1c(=O)c2ncn(CC(=O)Nc3cc(C(F)(F)F)ccc3N3CCOCC3)c2n(C)c1=O | inactive: -2.3%
Cn1c(=O)c2c(ncn2CC(=O)Nc2nnc(Cc3ccccc3)s2)n(C)c1=O | inactive: -2.2%
Brc1cccc(CNc2nc3ccccc3n2CCN2CCOCC2)c1 | inactive: -0.65%
Cc1ccc(CNC(=O)CCCCCNC(=O)N2CCn3c2nc2ccccc23)cc1 | inactive: -1.08%
S=C(Nc1ccccc1)N1CCn2c(nc3ccccc32)C1 | inactive: -0.4%
CCOCCn1c(=O)c2c(nc3n2CCN3c2ccc(CC)cc2)n(C)c1=O | inactive: -3.31%
Cc1cc(N2C(=O)CC(N3CCC(n4c(=O)[nH]c5ccccc54)CC3)C2=O)no1 (centres undefined) | inactive: -1.54%
CC(C)NC(=O)Cn1c(SCC(=O)N2CCc3ccccc3C2)nc2ccccc21 | inactive: 1.51%
COc1cc(Cl)c(C)cc1NC(=O)Cn1c(NCCO)nc2ccccc21 | inactive: -2.39%
Cc1ccc2c(c1)C1CN(C)CCC1N2C(=S)Nc1cccnc1 (centres undefined) | inactive: -1.46%
N#CCC(=O)N/N=C\c1ccc(OC/C=C/c2ccccc2)cc1 | inactive: 2.27%
FC(F)(F)c1cccc(-n2nnnc2C2(N3CCOCC3)CCCCC2)c1 | inactive: -2.01%
CN1CCC2(CC1)Nc1nc(SCc3ccc(Cl)cc3)nn1C1=C2CN(C)CC1 | inactive: -2.52%
Cc1ccc(SCc2nc3ccccc3n2CC(=O)Nc2ccc(Cl)cc2)cc1 | inactive: 3.25%
CCOc1ccc(C(=O)N2CCn3c2nc2ccccc23)cc1 | inactive: -3.14%
CCOC(=O)c1ccc(NC(=O)Cn2cnc3cc(C)c(C)cc32)cc1 | inactive: -1.42%
Cc1ccc(-c2nc(N(C)C3CCN(C)CC3)c3ccccc3n2)cc1 | inactive: -1.93%
CCOC(=O)Cc1csc(NC(=O)Cn2cnc3c2c(=O)n(C)c(=O)n3C)n1 | inactive: -2.19%
CNC(=O)Cn1c(=O)n(C)c2ccccc21 | inactive: -2.5%
CC1c2nc3ccccc3n2C(CC(=O)NC2CC2)C(=O)N1Cc1ccccc1 (centres undefined) | inactive: -2.66%
CCN1C(=O)CC(N2CCC(Nc3ccc(F)cc3)CC2)C1=O (centres undefined) | inactive: -0.73%
CCOP(=O)(Nc1ccc(C)cn1)OCC | inactive: -1.95%
CSc1nc(N)nc2c1ncn2CC(=O)NCCNc1ccc([N+](=O)[O-])cn1 | inactive: -3.17%

Structure (SMILES) | activation
CC(c1ccccc1)N1CCn2c(nc3cc(NC(=O)NC4CCCCC4)ccc32)C1 (centres undefined) | inactive: -3.02%
CC(C)NC(=O)CSc1nc2ccccc2n1CC(=O)N1CCc2ccccc21 | inactive: -1.06%
CC(C)C[C@H](NC(=O)N1CCn2c1nc1ccccc12)C(=O)N[C@@H](C(=O)O)c1ccccc1 | inactive: -2.21%
CN(C)C1(c2nnnn2CCOC(=O)Nc2ccc(Cl)cc2)CCCCC1 | inactive: 4.37%
CCC1=CC2Cc3nc4ccc(Cl)cc4c(N)c3C(C1)C2 (centres undefined) | inactive: 3.81%
Cn1c(=O)c2c(ncn2CC(=O)N2CCCc3ccccc32)n(C)c1=O | inactive: -1.48%
COc1cccc(CNC(=O)CCCCCNC(=O)N2CCn3c2nc2ccccc23)c1 | inactive: -1.81%
O=P1(Nc2ccccn2)COc2ccccc2OC1 | inactive: -1.01%
O=C(Cn1c(-c2cscn2)nc2ccccc21)Nc1ccc2ccccc2c1 | inactive: 2.48%
O=C(Cn1c(NCCO)nc2ccccc21)NCCc1ccc(F)cc1 | inactive: -2.16%
CC(NC(=O)Cn1c(NCCO)nc2ccccc21)C1CC2CCC1C2 (centres undefined) | inactive: -3.06%
CCN(CC)CCn1c(NCc2cccc(OC)c2)nc2ccccc21 | inactive: -1.47%
CC(C)(C)NC(=O)Cn1c(=O)n(CC(=O)NC(C)(C)C)c2ccccc21 | inactive: 0.97%
O=C(Cn1c(SCc2ccccc2)nc2ccccc21)N1CCOCC1 | inactive: -2.15%
Cn1c(=O)c2c(ncn2CC(=O)N2CCN(c3ccc(F)cc3)CC2)n(C)c1=O | inactive: -2.45%
CCCCNC(=O)CC1C(=O)N(Cc2ccccc2)C(C)c2nc3ccccc3n21 (centres undefined) | inactive: -1.81%
CCOP(=O)(NC(=NC(C)c1ccccc1)NC(C)c1ccccc1)OCC (centres undefined) | inactive: -3.74%
O=[As](O)(c1cccs1)c1cccs1 | inactive: -3.36%
CCc1ccccc1NC(=O)CSc1nc2ccccc2n1CC(=O)N1CCCC1 | inactive: -0.41%
Cc1ccc(OCC(=O)OC2CN3CCC2CC3)cc1 (centres undefined) | inactive: -1.84%
Cc1ccc(C(=O)N(C)c2ccc(OCC(=O)N3c4ccc(C)cc4C4CN(C)CCC43)cc2)cc1 (centres undefined) | inactive: -2.05%
C[C@H](O)[C@@H]1C(=O)N2CCc3ccc(N4CCN(C)CC4)cc3[C@@H]2C[C@@H]1N(C)C(=O)Nc1cc(Cl)cc(Cl)c1 | inactive: -1.36%
CCC(=O)N1CCn2c1nc1ccccc12 | inactive: -1.91%

Structure (SMILES) | activation
NC(=O)Cn1c(S(=O)(=O)Cc2ccccc2)nc2ccccc21 | inactive: -2.38%
Cc1cc(NC(=O)Cn2cnc3c2c(=O)n(C)c(=O)n3C)n(-c2ccccc2)n1 | inactive: -0.15%
NS(=O)(=O)c1cccc(NC(=O)COC(=O)C(O)(c2ccccc2)c2ccccc2)c1 | inactive: -0.84%
O=C(NCCn1c(-c2ccncc2)nc2ccccc21)[C@H]1CCCN1c1nc(CN2CCCCC2)cs1 | inactive: 0.29%
COC(=O)[C@H](Cc1ccc(O)cc1)NC(=O)Cn1cnc2c(OCc3ccccc3)ncnc21 | inactive: -1.08%
CC(C)C[C@H](NC(=O)N1CCn2c1nc1ccccc12)C(=O)NCc1ccco1 | inactive: -2.08%
Cc1ccc2c(c1)C1CN(C)CCC1N2C(=O)c1ccccc1NS(=O)(=O)c1ccc(F)cc1C (centres undefined) | inactive: 0%
O=P1(Nc2ccc(Br)cn2)COc2ccccc2OC1 | inactive: -1.28%
Cc1ccc(S(=O)(=O)N2CCN(C(=O)Cn3cnc4c3c(=O)n(C)c(=O)n4C)CC2)cc1C | inactive: -0.9%
Cc1ccc2c(c1)C1CN(C)CCC1N2C(=O)Cn1nnc(-c2ccccc2F)n1 (centres undefined) | inactive: -1.02%
Cn1c(CNc2nc3ccccc3n2CCN2CCCCC2)nc2ccccc21 | inactive: -0.04%
CCOCN(C(=O)Cn1c(COC)nc2ccccc21)c1c(C)cccc1CC | inactive: -1.51%
Cc1ccc2c(c1)C1C[N+](C)(CC(=O)Nc3ccccc3Cl)CCC1N2C(=O)c1ccccc1Cl (centres undefined) | inactive: -2.94%
Nc1cccc([As](=O)(O)c2ccccc2)c1 | inactive: -3.31%
Cc1ccc(NC(=O)Cn2cnc3c(NCc4ccccc4)ncnc32)cc1C | inactive: -1.98%
Cn1c(=O)c2c(ncn2CC(=O)Nc2ccc(Cl)cc2Cl)n(C)c1=O | inactive: -1.95%
COc1ccccc1N1CCN(C(=O)Cn2cnc3c2c(=O)n(C)c(=O)n3C)CC1 | inactive: -3.47%
Cn1c(=O)[nH]c(=O)c2c1nc(CN1CCN(c3cccc(Cl)c3)CC1)n2CCN1CCOCC1 | inactive: 0.51%
CSc1nc(N)nc2c1ncn2CC(=O)NCC1CCCO1 (centres undefined) | inactive: -4.22%
Cn1c(=O)c2ncn(CC(=O)NCCOCc3ccccc3Cl)c2n(C)c1=O | inactive: -3.39%
O=C(Cn1c(-c2ccccc2Cl)nc2ccccc21)Nc1cccc(Cl)c1 | inactive: -0.54%
Cn1c(=O)c2c(ncn2CC(=O)Nc2ccccc2Sc2ccccc2)n(C)c1=O | inactive: -3.18%
CCN(CC)C(=O)N1CCn2c(nc3ccccc32)C1 | inactive: -0.45%

Structure (SMILES) | activation
O=P1(Nc2ncccn2)COc2ccccc2OC1 | inactive: -0.01%
Cn1c(=O)[nH]c(=O)c2c1nc(N1CCOCC1)n2CCN1CCOCC1 | inactive: -3.13%
Cc1ccc2c(c1)C1CN(C)CCC1N2C(=O)c1ccc(Br)o1 (centres undefined) | inactive: -1.15%
Cc1ccc2c(c1)C1CN(C)CCC1N2C(=O)/C(C#N)=C/c1ccc2c(c1)OCO2 (centres undefined) | inactive: -0.42%
COC(=O)CSc1nc2ccccc2n1CC(=O)N(C(C)C)C(C)C | inactive: -1.19%
CN(C)CCn1cnc2c1c(=O)[nH]c(=O)n2Cc1ccccc1 | inactive: -2.42%
N=c1n(CCN2CCOCC2)c2ccccc2n1Cc1ccccc1Br | inactive: -4.39%
CCc1ccccc1NC(=O)CSc1nc2ccccc2n1CC(=O)N(C)C | inactive: -4.09%
O=S(=O)(Nc1ccc2c(c1)nc1n2CCN(Cc2ccccc2)C1)c1ccc(Cl)cc1 | inactive: 0.05%
O=C(Cn1cnc2ccccc21)N/N=C/c1cccs1 | inactive: -0.05%
CC(C)N(C(=O)Cn1c(SCC(=O)NCc2ccc3c(c2)OCO3)nc2ccccc21)C(C)C | inactive: -3.41%
O=C1CC(N2CCC(n3c(=O)[nH]c4ccccc43)CC2)C(=O)N1c1ccc(F)cc1 (centres undefined) | inactive: -2.58%
CC(c1ccccc1)N1CCn2c(nc3cc(NC(=O)c4cccs4)ccc32)C1 (centres undefined) | inactive: -1.33%
COc1cccc(C(=O)N2CCn3c2nc2ccccc23)c1 | inactive: -2.92%
COc1ccc(Cc2nc3ccccc3n2CC(=O)N/N=C/c2ccc(C)cc2O)cc1OC | inactive: 0.85%
CN1CN(c2ccccc2)C2(CCN(CCCSc3ccccc3NC(=O)/C=C/c3ccccc3)CC2)C1=O | active: 18.3%
CCN(c1ccccc1)S(=O)(=O)c1ccc(OC)c(NC(=O)Cn2cnc3c2c(=O)n(C)c(=O)n3C)c1 | inactive: -1.65%
O=C(/C=C/c1ccccc1)OC1CN2CCC1CC2 (centres undefined) | inactive: -2.87%
COc1cccc(NC(=O)Cn2c(SCC(=O)N3CCOCC3)nc3ccccc32)c1 | inactive: -1.14%
O=S(=O)(c1ccc(Cl)c(Cl)c1)N1CCc2nc3ccccc3n2CC1 | inactive: -1.26%

Reference: PubChem BioAssay AID504326 (The Scripps Research Institute Molecular Screening Center, 2011)
